We go through one substance from patent US10815276B2, “Cell penetrating peptides and methods of making and using thereof” (Entrada Therapeutics, Inc., priority 2014, dated 2020).

The target in this test is T1, PTP1B (Homo sapiens, UniProt P18031).
T1 construct: The gene coding for the catalytic domain of PTP1B (amino acids 1-321) was amplified; made in house; host or cells: prokaryotic vector pET-22b(+)-ybbR
T1 sequence (P18031 1-321): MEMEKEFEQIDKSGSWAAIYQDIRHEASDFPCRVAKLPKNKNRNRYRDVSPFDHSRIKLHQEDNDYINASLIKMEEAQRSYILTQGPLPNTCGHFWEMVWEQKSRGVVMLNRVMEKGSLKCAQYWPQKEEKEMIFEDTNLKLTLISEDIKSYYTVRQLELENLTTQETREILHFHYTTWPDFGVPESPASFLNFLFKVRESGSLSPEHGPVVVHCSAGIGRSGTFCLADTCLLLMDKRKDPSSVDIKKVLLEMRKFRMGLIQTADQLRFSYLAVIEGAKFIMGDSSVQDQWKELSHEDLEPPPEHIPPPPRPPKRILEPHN
The test can be described thus: PTP inhibition assay (pNPP). Particulars: monocyclic peptide inhibitors. The class given is biochemical. How it is done:
PTP assays were performed in a quartz microcuvette (total volume 150 μL). The reaction mixture contains 100 mM Tris-HCl, pH 7.4, 50 mM NaCl, 2 mM EDTA, 1 mM TCEP, 0-1 μM of PTP inhibitor, and 500 μM para-nitrophenyl phosphate (pNPP). The enzymatic reaction was initiated by the addition of PTP (final concentration 15-75 nM) and monitored continuously at 405 nm on a UV-VIS spectrophotometer. Initial rates were calculated from the reaction progress curves (typically <60 s). The half-maximal inhibition constant (IC50) was defined as the concentration of an inhibitor that reduced the enzyme activity to 50% and was obtained by plotting the rates (V) against the inhibitor concentration [I] and fitting the data against the equation
[formula] where V0 is the enzymatic reaction rate in the absence of inhibitor. […] The reaction rate (V) was plotted against the pNPP concentration ([S]) and fitted against the equation
[formula] to obtain the Michaelis constant K. The Ki value was obtained by plotting the K values against the inhibitor concentration [I] and fitted to equation
[formula] where K0 is the Michaelis constant in the absence of inhibitor ([I]=0).

As a reminder, the IC50 is the concentration that inhibits the measured activity by half. “cyclo(Ile-Pro-Phg-F2Pmp-Nle-Arg-Arg-Arg-Arg-Nal-Phe-Gln) [Monocyclic Inhibitor 3]” displayed an IC50 of approximately 0.2 µM.
